Measured values published in US7374875B2, “Peptides having affinity for the gp120 viral protein and use thereof” (priority 2001, dated 2008).
Several values for one entry are separate records, joined by “and”; a condition that tells them apart may be missing. Equal entries are not always repeated. Where two headings read alike, the source gives them in different places.

Experiments:
[1] = test system: HIV-1LEN; experiment: Replication of clinical isolate HIV-1LEN in PHA-P-activated PBMCs, reverse transcriptase activity in supernatants; conditions: 50 TCID50, PHA-P-activated human PBMCs
Experimental: (§1) The handling of the infectious material was carried out in an L3-type high security laboratory. In order to be as close as possible to the physiopathological conditions, the study was carried out using primary cultures of human peripheral blood mononuclear cells (PBMCs). In all the experiments, the effects of the new molecules were compared to those of AZT.
(§2) The PBMCs are separated from the other represented elements of the blood by ficoll (MSL 2000, Eurobio) gradient centrifiguation: 30 ml of blood, from a healthy donor, diluted by a third are deposited onto a 20 ml ficoll cushion. After centrifugation for 20 min at 850 g, the ring of PBMCs is removed and then washed twice with RPMI 1640, after centrifugation at 750 g for 10 min and at 400 g for 5 min. The PBMCs are then activated for 48 h with 1 μg/ml of phytohaemagglutinin-P (PHA-P; Difco Laboratories). The PBMCs are cultured at +37° C., in an atmosphere saturated with humidity, under 5% CO2. At the end of the 48 hours of mitogenic activation, they are cultured in medium B. Throughout the culturing, the culture supernatants are sampled, and the culture media are renewed every three or four days. At each renewal of the culture media, the cell viability is evaluated by microscopic observation.
(§3) The compounds of the present invention CD4M30, CD4M33 and CD4M35 were solubilized in sterile water for injectable preparation (Aguettant), aliquoted, and then stored at −20° C.
The biological characteristics of this isolate are: rapid/high, scyncitia inducing (SI), ×4: it is therefore preferentially able to infect lymphocytes. […] The TCID50 (50% Tissue Culture Infectious Dose) was calculated using the Kärber formula.
The viral replication was measured, on day 7 of the culture, by assaying the reverse transcriptase activity in the culture supernatants using the RetroSys (registered trade mark) assay kit according to the recommendations of the company Innovagen. […]

[2] = test system: HIV-1LAI; experiment: Replication of HIV-1LAI in PHA-P-activated PBMCs, reverse transcriptase activity in supernatants on day 7; conditions: for % inhibition of viral replication: ± standard deviation; for EC50: HIV-1LAI, read-out: ED50 (the source's name)
Experimental: as §1, §2, §3
The biological characteristics of this isolate are: rapid/high, scyncitia inducing (SI), ×4: it is therefore preferentially able to infect lymphocytes. The viral stock was constituted by amplifying this strain in vitro, using umbilical cord blood mononuclear cells (UCBMCs) pre-activated with 1 μg/ml of PHA-P and cultured in medium B. In order to remove the soluble factors such as cytokines, the culture supernatants were ultracentrifuged at 360 000 g for 5 min, and the pellets were resuspended in RPMI 1640. The viral stock thus constituted was then titred using PHA-P-activated PBMCs. The TCID50 (50% Tissue Culture Infectious Dose) was calculated using the Kärber formula.
The viral replication was measured, on day 7 of the culture, by assaying the reverse transcriptase activity in the culture supernatants using the RetroSys (registered trade mark) assay kit according to the recommendations of the company Innovagen.
The 50% effective doses (ED50) are calculated using the “Dose-effects analysis with microcomputers” software developed by J. Chou & T. C. Chou.

`Cc1cn([C@H]2C[C@H](N=[N+]=[N-])[C@@H](CO)O2)c(=O)[nH]c1=O` [AZT] showed an ED70 [1] of 4.8 nM, an ED90 [1] of 16.5 nM and an EC50 ([1]; read-out: ED50 (the source's name)) of 2.2 nM. The “% inhibition of viral replication” value ([2]; AZT 1 nM) was 39 + 10%, the “% inhibition of viral replication” value ([2]; AZT 10 nM) was 59 + 28% and the “% inhibition of viral replication” value ([2]; AZT 100 nM as printed (second such line)) was 100 ± 0%. The “% inhibition of viral replication” value ([2]; AZT 100 nM) was 87 ± 18%, the “% inhibition of viral replication” value ([2]; AZT 10,000 nM) was 100 ± 0% and the EC50 ([2]; 10 TCID50, PHA-P-activated human PBMCs) was 5 nM. For the same compound, the EC50 ([2]; various viral doses (10-100 TCID50)) was 3 to 14 nM and 3 nM.
